Experimental data as given in patent US20130183237A1 (priority 2007, published 2013).

What was measured:
recombinant α-thrombin = recombinant α-thrombin (Homo sapiens, UniProt P00734); conditions: S2238 100 μM
[1] = mean, total radioactivity, male rats, single i.v. 0.4 mg/kg
[2] = rat; cited from earlier work
[3] = molecular target: human plasma derived thrombin ([…], Japan) (human), P00734; test: cell-based or functional assay
[4] = molecular target: human plasma derived thrombin ([…], Japan) (human), P00734

| Molecule | IC50 of inhibition of thrombin amidolytic activity (S2238), pre-incubation 0 min [3] [nM] | Ki [4] [nM] | also measured |
| --- | --- | --- | --- |
| SDQGDVAEPKMHKT(hex)APPFDFEAIPEEYLDDES [variegin] | – | – | inhibition at equimolar concentrations of thrombin and inhibitor (recombinant α-thrombin; 3.33 nM thrombin and 3.33 nM inhibitor): ~80%; IC50 (recombinant α-thrombin; read-out: IC50 of inhibition of thrombin amidolytic activity, thrombin 3.33 nM, incubation time not stated or independent of it): ~0.99 nM; t½^a, apparent terminal elimination half life [1]: 117.2 h; t½^b, apparent distribution half life (plasma half-life) [1]: 0.86 h |
| hirudin | – | – | radioactivity recovered in the kidney [2]: 80% |
| EPKMHKTAPPFDFEEIPEEYLDDES (modifications not checked) [EP25A22E] | 124 | 0.311 | – |
| MHKTAPPFDFEAIPEEYL (modifications not checked) [MH18] | 10.9 | – | – |
| DVAEPKMHKTAPPFDFEAIPEEYL (modifications not checked) [DV24] | 7.49 | 0.306 | – |
| MHKTAPPFDFEEIPEEYLDDES (modifications not checked) [MH22A22E] | – | 15.1 | – |
